## scFv variants of Ab-91 (heavy chain) against a SARS-CoV-2 spike peptide

Values reported by Engelhart et al. 2022, doi:10.1038/s41597-022-01779-4 (FLAb copy).

All variants were tested on one target, the spike HR2 peptide PDVDLGDISGINAS (SARS-CoV-2).

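The starting antibody came from a phage panning campaign against this peptide. In library AAYL51, one, two or three CDR residues were substituted; doubles and triples were drawn at random. In AlphaSeq, yeast of one mating type display the scFv and yeast of the other type display the target. Mating (16 h, 30 °C) was followed by selection of diploids and sequencing of their barcodes. A regression on co-assayed BCL2-family reference pairs converts the normalised counts of each replicate to an apparent Kd. There are three technical replicates.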

The variants keep the light chain, the linker and the frameworks of Ab-91 (scFv order VL, a 15-residue (Gly4Ser)3 linker, VH).
VL: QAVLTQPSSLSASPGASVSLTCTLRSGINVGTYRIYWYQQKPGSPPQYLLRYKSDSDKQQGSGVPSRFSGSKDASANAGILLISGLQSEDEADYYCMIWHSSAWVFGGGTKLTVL
VH: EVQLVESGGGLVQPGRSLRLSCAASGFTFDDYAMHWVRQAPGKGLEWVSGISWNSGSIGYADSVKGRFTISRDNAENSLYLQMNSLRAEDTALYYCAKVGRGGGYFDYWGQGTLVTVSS

The parent's heavy chain CDRs are GFTFDDYAMH, GISWNSGSIGYADSVK, VGRGGGYFDY; each variant's own CDRs replace them letter for letter.
Values are log10 of the apparent Kd in nM; lower means stronger binding.
"nd" means that the variant was in the library but no mating with the target was seen in that replicate; the authors take this as a sign of poor binding, and no number exists.
As a blank, each scFv also met three strains without target: over library AAYL51, 21% of these pairings were detected, typically at 4.54 and seldom below 3.26. For each scFv, signals with the empty controls are counted beside the result, with their mean in brackets.

CDR-H1,CDR-H2,CDR-H3,log10 Kd (nM) by replicate,signal with controls
GFTFDDYAMH,HISWNSGSIGNADSVK,VGRNGGYFDY,nd / 3.45 / nd,0/9
GFHFDDYAMH,GISWNSGSIGWAMSVK,VGRGGGYFDY,nd / 3.50 / nd,1/9 (3.01)
GFTSDDYAMH,GISWNSGSWGYADSVK,VGRGGGYFDY,4.69 / 4.30 / 4.42,8/9 (4.44)
GFLFDDMAMH,GISWNSGSIGYADSIK,VGRGGGYFDY,3.42 / 5.76 / 4.49,5/9 (4.21)
GFTFDWYAMH,GISTNSGSIGYADSVK,VGLGGGYFDY,nd / nd / nd,0/9
GFTFDDYAMH,GVSGNSGSIGYADSVK,VGRGGGYFDA,nd / nd / nd,0/9
WFTFSDYAMH,GISWNSGSIGYADSVK,VGRGWGYFDY,3.60 / 4.70 / nd,3/9 (3.75)
GFTFDDYAMH,GKSWNSGSIGYADSVK,VGRNDGYFDY,4.69 / 5.58 / nd,2/9 (4.02)
GFTFDDYALH,GISWNSGSIGYADSVK,VGRGGGYFDW,2.06 / 2.44 / 1.59,3/9 (4.12)
GFTFDDYAMH,GISWNSGSIGYADSVK,VGRGGGVFAY,4.49 / 5.98 / 4.47,6/9 (5.08)
GFTFDDYAMH,SISWHSGSIGYADSVK,VGRGGGYFDF,nd / 2.77 / nd,0/9
GFTFDDCASH,GISWNSGSIGYPDSVK,VGRGGGYFDY,nd / nd / nd,0/9
GFTFDDYAMS,GISWNSGSIDYADSVK,VGRGDGYFDY,4.00 / 4.29 / nd,3/9 (4.69)
GFTFDDYRMH,QISWNSGSAGYADSVK,VGRGGGYFDY,nd / nd / nd,0/9
GFTADDYAMH,GISWNSGSIGYADSVK,VGRGIGYFDY,nd / nd / nd,1/9 (4.32)
GFTFDDYRMH,GISVNSGSIGYADSVK,VGRGGGYFVY,nd / nd / nd,1/9 (2.85)
GFTFTDYAMH,GISWNSGSIGYAVSVK,VGQGGGYFDY,2.79 / 3.05 / 3.29,1/9 (4.21)
GFTFDDYAMH,GISWNSGSIGYADSVK,VGRGTGYFDY,1.42 / 1.57 / 0.92,3/9 (4.67)
GFTFDDYAMI,GISWNMGSYGYADSVK,VGRGGGYFDY,nd / nd / nd,1/9 (4.28)
GFTFDVYAMG,KISWNSGSIGYADSVK,VGRGGGYFDY,4.14 / nd / nd,0/9
GFTFDDYAMH,GISWNSHSIGYADQVK,NGRGGGYFDY,nd / 3.75 / 4.50,0/9
GFTFDDYAMH,GISWNSGSIGYADSDK,VGRLGGYFIY,nd / nd / nd,1/9 (3.57)
GFTFDDYAMH,GISWNSGSIDYADSVK,VGRGGVYFDY,nd / nd / nd,1/9 (3.26)
GFLFDDYAMH,GISWNSMSIGYADSVK,VGRGGLYFDY,nd / nd / nd,1/9 (4.78)
GFTFDDYAMH,GISWNSGSIGYADSHK,VGCGWGYFDY,nd / nd / nd,3/9 (5.16)
GFYFDDYAMH,GIQWNSGSIGYADSVK,VGRGGGTFDY,nd / nd / 4.83,1/9 (4.38)
GVTFDDYAMH,GIYWNSGSIGYADSVK,VGRGGEYFDY,nd / 4.93 / nd,2/9 (3.79)
GFTFDDYAMH,GISWNSISIGYADSVK,VIRGGGYADY,4.64 / nd / nd,4/9 (4.68)
GFTIDDYAMH,GINWNSGSIGNADSVK,VGRGGGYFDY,nd / nd / nd,1/9 (2.75)
GFTCDDYAMH,LHSWNSGSIGYADSVK,VGRGGGYFDY,nd / nd / nd,0/9
GFTFDDYAMH,RISWNSGSIGYTDSVK,VGRGGGYFDV,4.90 / 4.06 / 4.60,4/9 (4.55)
GYTFDDYEMH,GISWNSGSIGYADSVK,VGRGNGYFDY,nd / nd / nd,1/9 (2.30)
KFTFDDYAMH,GISWNSGSIGYADSVH,SGRGGGYFDY,4.73 / 4.95 / nd,6/9 (4.59)
KFTFDDYAMH,GISWKSGSIGYADSVK,VGDGGGYFDY,nd / nd / nd,1/9 (4.85)
GFTFDDYAMH,GISWNSGSIGYAPSKK,VGRGGGYFDY,nd / nd / nd,1/9 (3.70)
GFWFDDYAMH,GISWNSGSIGYADSVK,SGRGGTYFDY,nd / 2.98 / nd,0/9
AFTFDDYAMH,GNSWNSGSIGYADSVK,VGRGGGYFDY,nd / nd / nd,2/9 (4.15)
MFTFDDYAMH,GISWNSGSIGYADSVK,VGRGCGYFDY,4.98 / 6.29 / 5.15,2/9 (4.18)
GFLFDDYAWH,GQSWNSGSIGYADSVK,VGRGGGYFDY,5.59 / 4.42 / nd,2/9 (3.99)
GFTFDTYAMH,GISWNSGSIGGADSVK,VGRVGGYFDY,nd / 4.67 / nd,3/9 (3.70)
GFTFDDYAML,GISWNSGSNGYADSVK,VGRGGGQFDY,nd / nd / nd,0/9
GFTFPDYAMH,GTSWNSGSIGYFDSVK,VGRGGGYFDY,nd / 5.40 / nd,1/9 (3.77)
GFTFDMYAMH,GISWNSGSIGYADSVK,VGHFGGYFDY,2.55 / 2.89 / 1.90,0/9
GFTFDDYAMH,GISWNTGSIGYADSVK,VGRGGGYFTY,3.84 / 4.86 / nd,2/9 (4.88)
GFTFDRYAMH,GYSWNSGSIGYADSVK,VGRGGGYFAY,6.01 / 6.21 / nd,1/9 (4.76)
GFWFDDYQMH,YISWNSGSIGYADSVK,VGRGGGYFDY,nd / nd / nd,0/9
GFMFNDYAMH,GISWNSGSIGYADSVK,VGRGGGYFDQ,1.81 / 1.44 / 0.87,4/9 (3.84)
GFTFDDYAMM,GISWNSGSISYADSVK,VGRGGGYFDY,4.57 / 5.43 / 4.96,4/9 (4.57)

A selection of 3 entries from above:

CDR-H1,CDR-H2,CDR-H3,log10 Kd (nM) by replicate,signal with controls
GFTFDDYRMH,QISWNSGSAGYADSVK,VGRGGGYFDY,nd / nd / nd,0/9
GFLFDDYAWH,GQSWNSGSIGYADSVK,VGRGGGYFDY,5.59 / 4.42 / nd,2/9 (3.99)
MFTFDDYAMH,GISWNSGSIGYADSVK,VGRGCGYFDY,4.98 / 6.29 / 5.15,2/9 (4.18)